Data: the supplement of paper PMC11403291

Chains of the proteins cited; added tags and fusions are not shown. Lines headed by an entry give the natural chain unless they say otherwise; changes in a name come on top.
UniProt Q8TDR2: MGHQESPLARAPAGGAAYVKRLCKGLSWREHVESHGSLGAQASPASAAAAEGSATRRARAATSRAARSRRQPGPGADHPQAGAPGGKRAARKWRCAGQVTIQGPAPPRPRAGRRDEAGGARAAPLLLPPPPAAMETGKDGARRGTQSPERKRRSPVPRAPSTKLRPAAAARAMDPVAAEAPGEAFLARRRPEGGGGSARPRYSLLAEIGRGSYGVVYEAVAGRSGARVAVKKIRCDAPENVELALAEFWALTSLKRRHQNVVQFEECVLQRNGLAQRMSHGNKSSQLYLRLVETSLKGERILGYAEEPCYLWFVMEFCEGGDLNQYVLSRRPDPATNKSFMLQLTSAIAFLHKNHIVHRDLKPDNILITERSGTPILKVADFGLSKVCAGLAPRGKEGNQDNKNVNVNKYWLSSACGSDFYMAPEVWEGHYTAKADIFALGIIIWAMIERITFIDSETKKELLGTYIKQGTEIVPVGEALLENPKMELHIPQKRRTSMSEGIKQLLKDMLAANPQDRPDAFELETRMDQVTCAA

Experiments:
Assay in all cases: apparent dissociation constant pKd app (kinobead competition) (-log10(M)); higher = stronger binding
STK35 = STK35 (UniProt Q8TDR2)
NEK2 = target: T1, NEK2 (UniProt P51955)
T1 sequence (whole entry): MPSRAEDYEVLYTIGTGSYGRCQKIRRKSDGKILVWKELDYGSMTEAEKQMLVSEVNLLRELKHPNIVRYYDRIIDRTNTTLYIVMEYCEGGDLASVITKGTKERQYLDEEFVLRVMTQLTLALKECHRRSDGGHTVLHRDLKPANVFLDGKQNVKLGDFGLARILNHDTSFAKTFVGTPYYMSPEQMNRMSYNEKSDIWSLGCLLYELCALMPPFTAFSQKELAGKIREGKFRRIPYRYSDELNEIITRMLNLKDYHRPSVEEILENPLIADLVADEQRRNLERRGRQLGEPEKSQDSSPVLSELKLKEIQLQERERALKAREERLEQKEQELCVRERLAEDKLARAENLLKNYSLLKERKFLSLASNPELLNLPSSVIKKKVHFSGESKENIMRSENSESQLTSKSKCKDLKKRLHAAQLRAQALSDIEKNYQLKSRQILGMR

NEK6 = target: T2, NEK6 (UniProt Q9HC98)
T2 sequence (whole entry): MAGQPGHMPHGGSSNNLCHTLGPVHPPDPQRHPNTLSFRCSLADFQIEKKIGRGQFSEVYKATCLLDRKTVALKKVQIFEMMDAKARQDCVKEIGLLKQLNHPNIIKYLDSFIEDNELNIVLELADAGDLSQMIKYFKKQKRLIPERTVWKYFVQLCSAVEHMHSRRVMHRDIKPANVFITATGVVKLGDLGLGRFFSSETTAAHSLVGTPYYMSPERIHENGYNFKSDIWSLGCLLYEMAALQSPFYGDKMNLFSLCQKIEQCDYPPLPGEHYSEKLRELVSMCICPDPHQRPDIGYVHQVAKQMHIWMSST

MAP3K2 = target: T3, MAP3K2 (UniProt Q9Y2U5)
T3 sequence (whole entry): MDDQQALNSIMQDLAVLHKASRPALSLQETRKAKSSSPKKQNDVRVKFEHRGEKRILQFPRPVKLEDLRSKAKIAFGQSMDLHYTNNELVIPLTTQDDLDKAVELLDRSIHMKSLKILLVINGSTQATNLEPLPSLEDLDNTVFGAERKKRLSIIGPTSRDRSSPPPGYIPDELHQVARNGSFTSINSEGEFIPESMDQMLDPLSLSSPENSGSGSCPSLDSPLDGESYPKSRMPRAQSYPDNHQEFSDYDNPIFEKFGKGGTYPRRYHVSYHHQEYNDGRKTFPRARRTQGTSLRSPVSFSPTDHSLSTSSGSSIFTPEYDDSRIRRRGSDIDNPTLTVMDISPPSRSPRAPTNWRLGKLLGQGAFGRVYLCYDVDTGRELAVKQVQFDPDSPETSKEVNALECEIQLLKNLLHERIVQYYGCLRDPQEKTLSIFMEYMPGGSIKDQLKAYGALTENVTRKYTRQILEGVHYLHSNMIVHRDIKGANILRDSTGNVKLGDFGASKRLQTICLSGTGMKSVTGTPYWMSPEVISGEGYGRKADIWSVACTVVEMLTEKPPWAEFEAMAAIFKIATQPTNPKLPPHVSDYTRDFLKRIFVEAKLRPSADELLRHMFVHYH

MAP3K15 = target: T4, MAP3K15 (UniProt Q6ZN16)
T4 sequence (whole entry): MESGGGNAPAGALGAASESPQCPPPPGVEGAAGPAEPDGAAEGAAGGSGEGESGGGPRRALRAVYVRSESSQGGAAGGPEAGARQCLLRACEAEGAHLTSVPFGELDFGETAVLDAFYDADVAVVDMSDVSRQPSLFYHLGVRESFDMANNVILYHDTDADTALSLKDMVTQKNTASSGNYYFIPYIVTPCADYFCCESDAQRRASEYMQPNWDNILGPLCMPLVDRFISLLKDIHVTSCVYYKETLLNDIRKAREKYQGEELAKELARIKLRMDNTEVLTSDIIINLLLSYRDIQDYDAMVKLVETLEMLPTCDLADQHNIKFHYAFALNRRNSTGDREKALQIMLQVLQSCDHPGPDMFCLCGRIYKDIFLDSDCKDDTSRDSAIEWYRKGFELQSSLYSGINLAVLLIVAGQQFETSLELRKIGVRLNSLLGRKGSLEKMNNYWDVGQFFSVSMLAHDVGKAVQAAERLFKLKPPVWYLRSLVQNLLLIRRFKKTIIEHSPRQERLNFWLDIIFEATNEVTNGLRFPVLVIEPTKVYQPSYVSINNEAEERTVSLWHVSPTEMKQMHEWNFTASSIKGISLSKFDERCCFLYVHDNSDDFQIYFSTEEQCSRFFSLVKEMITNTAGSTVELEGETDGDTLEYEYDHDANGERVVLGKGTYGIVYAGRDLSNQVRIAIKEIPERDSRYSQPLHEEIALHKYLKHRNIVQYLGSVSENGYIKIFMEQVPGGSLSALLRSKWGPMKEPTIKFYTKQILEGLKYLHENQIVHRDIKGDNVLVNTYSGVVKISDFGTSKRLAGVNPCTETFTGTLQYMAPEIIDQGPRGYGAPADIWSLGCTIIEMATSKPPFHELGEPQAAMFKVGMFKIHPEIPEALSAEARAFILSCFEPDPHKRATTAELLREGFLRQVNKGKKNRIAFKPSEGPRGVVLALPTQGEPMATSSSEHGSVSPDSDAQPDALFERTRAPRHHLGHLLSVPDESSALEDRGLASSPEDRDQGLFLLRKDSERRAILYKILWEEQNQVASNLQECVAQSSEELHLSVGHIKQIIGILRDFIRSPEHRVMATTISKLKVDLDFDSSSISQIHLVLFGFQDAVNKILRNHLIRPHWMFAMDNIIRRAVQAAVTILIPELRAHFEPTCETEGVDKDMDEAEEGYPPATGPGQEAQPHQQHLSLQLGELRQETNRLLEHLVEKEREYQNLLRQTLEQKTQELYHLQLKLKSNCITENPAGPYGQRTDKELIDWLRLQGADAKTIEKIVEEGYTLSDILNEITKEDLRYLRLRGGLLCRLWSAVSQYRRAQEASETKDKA

apparent dissociation constant pKd app (-log10) (STK35)	apparent dissociation constant pKd app (-log10) (NEK2)	apparent dissociation constant pKd app (-log10) (NEK6)	apparent dissociation constant pKd app (-log10) (MAP3K2)	apparent dissociation constant pKd app (-log10) (MAP3K15)	Compound
< 4.5	< 4.7	< 4.6	< 4.6	< 4.5	NC(=O)c1cccc2cn(-c3ccc([C@@H]4CCCNC4)cc3)nc12 [Niraparib]
< 4.5	< 4.7	< 4.6	< 4.6	< 4.5	O=C(c1cc(Cc2n[nH]c(=O)c3ccccc23)ccc1F)N1CCN(C(=O)C2CC2)CC1 [Olaparib]
< 4.5	< 4.7	< 4.6	< 4.6	< 4.5	Cn1ncnc1[C@H]1c2n[nH]c(=O)c3cc(F)cc(c23)N[C@@H]1c1ccc(F)cc1 [Talazoparib]
